The results in this text go back to US20170362325A1.

Sequences of proteins named here, by UniProt entry; tags and fusion partners are left off. Residues count along the entry.
UniProt P01375, 77-233 limits assumed: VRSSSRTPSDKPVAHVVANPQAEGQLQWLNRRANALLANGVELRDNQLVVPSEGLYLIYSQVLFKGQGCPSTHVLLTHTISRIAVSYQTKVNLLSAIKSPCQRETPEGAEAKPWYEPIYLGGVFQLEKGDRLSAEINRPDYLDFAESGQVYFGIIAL

The test concerns the target TNFalpha (UniProt P01375). Description: cell-based or functional assay.

On to “anti-TNFalpha antibody molecule infliximab”, for which the 3H-thymidine uptake (cpm), PBMC + HUVEC + CD105×CD3, on target activation (FIG. 4A) was found to be 80000 cpm and the 3H-thymidine uptake (cpm), PBMC + HUVEC + PSMA×CD3, off target activation (FIG. 3A; control about 30000 cpm) worked out at 20000 cpm.
